Bioassay records from PubChem.
Shown are actives, neighbours in structure and some others; about 16% of the full set was active somewhere.
uPA generation: inhibitors of cell surface uPA generation | Potency, µM (top dose mostly 38.3 µM), inactives show at the top dose activity change, negative = inhibition, hits mostly inhibitors | 330,000 compounds, 0.31% hits | cell surface uPA generation assay, qHTS; active means well fitted inhibition curve with a large enough effect; inconclusive means small, poorly fitted or top-dose-only effect; inactive means no such curve, though single readings can be large or run the other way; tested in mouse RAW 264.7 cells; further: potency means the concentration at half of the fitted maximal effect; on the % scale 0 is the no-effect control and ±100 the full control effect; nearly all actives have a fitted effect of over 55% in size
TDP1 inh: TDP1 (human) enzyme inhibition; Q9NUW8; recombinant TDP1, AlphaScreen DNA substrate cleavage; Potency, µM (titrated, usually from 130 µM), for the others: top-dose activity change, negative = inhibition, most hits filed as inhibitors; 350,000 compounds, 0.28% hits; AID 485290; further: potency means the concentration at half of the fitted maximal effect; on the % scale 0 is the no-effect control and ±100 the full control effect; nearly all actives have a fitted effect of over 40% in size
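Recombinant E. coli-expressed Tdp1 (1 nM) preincubated with compound 15 min at RT, then 5'-biotin/3'-phosphotyrosine-FITC DNA substrate (15 nM) added for 5 min. AlphaScreen beads (10 ug/ml) added, 10 min RT; tyrosine-FITC cleavage read as signal loss.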
miR-21 FLuc: raises the signal of a miR-21 reporter; HeLa miR-21 FLuc reporter, luciferase, 48 h; Potency, µM (highest dose often 38.3 µM), for inactives: at the highest dose reporter change, positive = more light; 340,000 tested, under 10 active; active = well fitted rising curve with a large enough effect; inconclusive = small, poorly fitted or top-dose-only effect; inactive = no such curve, though single readings can be large or run the other way;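 also: % of control where 0% means no effect; miR-21 action dims this reporter so a rising signal means less miR-21 action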
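Compounds were titrated across several concentrations (up to approximately 40 uM) and incubated 48 hours with HeLa miR-21-FLuc reporter cells (miR-21 target sequence downstream of FLuc, endogenous miR-21). Readout was firefly luciferase luminescence after lytic detection reagent.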
DT40 TDP1 no CPT: qHTS for Inhibitors of human tyrosyl-DNA phosphodiesterase 1 (TDP1): qHTS in cells in absence of CPT. DT40 Tdp1-/- hTDP1 cells, no CPT, ATP luminescence, 48 h. Potency, µM (top dose mostly 46.2 µM), inactives show at the highest dose activity change, negative = growth inhibition, actives largely listed as inhibitors. 420,000 compounds, 15% hits; further: potency means the concentration at half of the fitted maximal effect; on the % scale 0 is the no-effect control and ±100 the full control effect; nearly all actives have a fitted effect of over 55% in size
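Luminescent ATP content (CellTiter-Glo) served as the growth readout. Knockout chicken DT40 cells expressing human TDP1 were exposed to compounds without camptothecin for a minimum 48 hr at 37 °C.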
DT40 TDP1 CPT: DT40-hTDP1 cell growth loss with CPT | Potency, µM (doses to about 46.2 µM), for inactives: at the highest dose activity change, negative = growth inhibition, hits mostly inhibitors | 420,000 compounds, 12% hits | chicken DT40 Tdp1-/-;hTDP1 cells + 20 nM CPT, ATP luminescence, 48 h; further: potency means the concentration at half of the fitted maximal effect; on the % scale 0 is the no-effect control and ±100 the full control effect; nearly all actives have a fitted effect of over 55% in size
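Chicken DT40 Tdp1-/- cells stably complemented with human TDP1 were seeded at 400 cells/well in medium containing 20 nM camptothecin, exposed to pin-transferred compounds, and grown at 37 °C for at least 48 hr. Viability was read as ATP luminescence.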
The depositor's hits bear a star; u = inconclusive; x = not tested or not shown; [ ] = dose if it differs, or a comment. Unless noted, the call rests on the fitted dose curve; in most records, active means well fitted curve in the direction sought with a large enough effect; inconclusive means small, poorly fitted or top-dose-only effect, or another doubt; inactive means no such curve, though single readings can be large; an effect the other way counts as inactive or inconclusive.

No.	canonical_smiles	uPA generation	miR-21 FLuc	DT40 TDP1 CPT
1	O=C(CCC1N=C2c3ccccc3N=C(SCc3ccccc3Cl)N2C1=O)NCc1cccs1 (stereo not given)	x	6%	u
2	CC(C)c1ccc(NC(=O)CSC2=Nc3ccccc3C3=NC(CCC(=O)NCc4cccs4)C(=O)N23)cc1 (stereo not given)	x	21%	23µM*
3	O=C(CCC1N=C2c3ccccc3N=C(SCC(=O)Nc3ccc(F)cc3)N2C1=O)NCc1cccs1 (stereo not given)	x	-2%	15µM*
4	O=C(COC(=O)c1cc[n+]([O-])cc1)Nc1ccc(Br)cc1	14%	x	-1%
5	Cc1ccc(CSCC(=O)N(C)CC(=O)Nc2ccccc2Cl)cc1	-1%	x	-7%
6	Cc1ccc(CSCC(=O)N(C)CC(=O)Nc2c(Cl)cccc2Cl)cc1	3%	x	18µM*
7	CC(=O)Nc1ccccc1N(CC(O)Cn1c2ccccc2c2ccccc21)S(=O)(=O)c1ccc(C)cc1 (stereo not given)	10%	16%	u
8	COc1ccc(N(CC(O)Cn2c3ccccc3c3ccccc32)S(=O)(=O)c2ccccc2)cc1 (stereo not given)	-7%	17%	u

No.	TDP1 inh	DT40 TDP1 no CPT
1	2%	21µM*
2	0%	26µM*
3	4%	15µM*
4	-2%[56.1 µM]	13%
5	1%	u
6	-7%	u
7	3%	18µM*
8	3%	u

The list continues:
No.	canonical_smiles	uPA generation	miR-21 FLuc	DT40 TDP1 CPT
9	CS(=O)(=O)N(CC(O)Cn1c2ccccc2c2ccccc21)c1ccccc1 (stereo not given)	1%	21%	u
10	CCN(CC(O)Cn1c2ccccc2c2ccccc21)S(=O)(=O)c1ccc(C)cc1 (stereo not given)	-4%	3%	29µM*
11	Cc1ccc(N(CC(O)Cn2c3ccccc3c3ccccc32)S(=O)(=O)c2ccc(F)cc2)cc1 (stereo not given)	x	u	u
12	COc1ccccc1N(CC(O)Cn1c(C)nc2ccccc21)S(=O)(=O)c1ccccc1 (stereo not given)	2%	-6%	u
13	CC(C)NC(=O)C(=O)NCc1ccccn1	4%	-1%	-3%
14	CCCC(=O)N1CCCC(c2nc(-c3cccs3)no2)C1 (stereo not given)	-1%	-46%	u
15	COc1cccc(-c2noc(C3CCCN(C(=O)CC(C)(C)C)C3)n2)c1 (stereo not given)	-14%	3%	16µM*
16	Cc1ccc(-c2noc(C3CCCN(C(=O)c4ccc(Cl)cc4)C3)n2)o1 (stereo not given)	-6%	u	u

No.	TDP1 inh	DT40 TDP1 no CPT
9	-2%	u
10	-1%	u
11	x	21µM*
12	0%	29µM*
13	x	18%
14	9%	26µM*
15	0%	u
16	11%	13µM*

Other compounds follow:
No.	canonical_smiles	uPA generation	miR-21 FLuc	DT40 TDP1 CPT
17	COc1ccc(-c2noc(C3CCCN(C(=O)c4ccc(F)cc4)C3)n2)cc1 (stereo not given)	-1%	3%	u
18	CCC(C)C(=O)N1CCCC(c2nc(-c3cccs3)no2)C1 (stereo not given)	-1%	-48%	-21%
19	COc1ccc(-c2noc(C3CCCN(C(=O)c4ccc(C)cc4)C3)n2)cc1 (stereo not given)	0%	-14%	23µM*
20	CSc1ccc(Cl)c(C(=O)NCCOc2cc(C(C)C)ccc2C)c1	x	-7%	29µM*
21	CC1(C)CC(=O)C(C(O)c2ccccc2)C(C)(C)N1 (stereo not given)	12%	0%	-3%
22	CCC(C)NC(=O)Cn1cccc1C(=O)c1ccccc1 (stereo not given)	-6%	2%	-4%
23	CC(NC(=O)Cn1cccc1C(=O)c1ccccc1)c1ccccc1 (stereo not given)	3%	3%	13µM*
24	CCc1ccc(-n2nc(C)c3c(C)cc(=O)n(CC(=O)Nc4ccc(C(C)=O)cc4)c32)cc1	x	3%	u

No.	TDP1 inh	DT40 TDP1 no CPT
17	x	u
18	2%	u
19	-1%	23µM*
20	6%	26µM*
21	1%	8%
22	4%	-18%
23	3%	u
24	8%	9.2µM*

Continuation:
No.	canonical_smiles	uPA generation	miR-21 FLuc	DT40 TDP1 CPT
25	COc1ccc(NC(=O)Cn2c(=O)cc(C)c3c(C)nn(C)c32)cc1	x	6%	u
26	Cc1cc(=O)n(CC(=O)NC(C)c2ccccc2)c2c1c(C)nn2C (stereo not given)	x	-31%	15µM*
27	Cc1ccc(Cl)cc1NC(=O)Cn1c(=O)cc(C)c2c(C)nn(C)c21	x	-4%	12µM*
28	Oc1ccccc1Nc1ccccn1	-4%	-22%	0%
29	Clc1cnc2nc(SC/C=C/c3ccccc3)[nH]c2c1	8%	0%	3%
30	Cc1ccc(NC(=O)CCc2nnc3ccc(N4CCOCC4)nn23)cc1C	5%	-4%	-11%
31	CCOc1ccc(NC(=O)Cn2c(=O)cc(C)c3c(C)nn(-c4ccc(CC)cc4)c32)cc1	x	1%	u
32	CCOc1ccc(NC(=O)Cn2c(=O)cc(C)c3c(C)nn(-c4cccc(Cl)c4C)c32)cc1	x	-2%	26µM*

No.	TDP1 inh	DT40 TDP1 no CPT
25	-2%	3.3µM*
26	x	8.2µM*
27	5%	u
28	x	-9%
29	-1%	-15%
30	x	0%
31	3%	u
32	8%	13µM*

Other entries
No.	canonical_smiles	uPA generation	miR-21 FLuc	DT40 TDP1 CPT
33	CCOc1ccc(NC(=O)Cn2c(=O)cc(C)c3c(C)nn(C)c32)cc1	x	4%	21µM*
34	O=C(COC(=O)c1cc(S(=O)(=O)N2CCCCC2)ccc1Cl)NC1CCS(=O)(=O)C1 (stereo not given)	4%	x	2%
35	CC1CC(NC(=O)c2c(O)nc3sccn3c2=O)CC(C)(C)C1 (stereo not given)	6%	x	u
36	Oc1ccc(C[C@H]2CNC(=S)N2CC2CCCN2C[C@H](Cc2ccc(O)cc2)N2C[C@H](Cc3ccccc3)N(CC3CCCCC3)C2=S)cc1 (stereo not given in full)	-21%	x	16µM*
37	Oc1ccc(C[C@H]2CNC(=S)N2CC2CCCN2C[C@H](Cc2ccc(O)cc2)N2C[C@H](Cc3ccc(O)cc3)N(CC3CCCCCC3)C2=S)cc1 (stereo not given in full)	u	x	23µM*
38	Oc1ccc(C[C@@H](CN2CCCC2CN2C(=S)NC[C@@H]2Cc2ccccc2)N2C[C@H](Cc3ccccc3)N(CC3CCCCC3)C2=S)cc1 (stereo not given in full)	x	x	15µM*
39	Oc1ccc(C[C@H]2CNC(=S)N2CC2CCCN2C[C@H](Cc2ccc(O)cc2)N2C[C@H](Cc3ccccc3)N(CC3CCCCCC3)C2=S)cc1 (stereo not given in full)	-24%	x	10µM*
40	COc1ccc(C(=O)OCC(=O)Nc2ccc3[nH]c(=O)[nH]c3c2)cc1	4%	x	-4%

No.	TDP1 inh	DT40 TDP1 no CPT
33	1%	8.2µM*
34	-1%	1%
35	u	u
36	x	16µM*
37	x	18µM*
38	x	21µM*
39	x	4.1µM*
40	-1%	-10%

Compound profiles (already shown). Values in the order: uPA generation, miR-21 FLuc, DT40 TDP1 CPT, TDP1 inh, DT40 TDP1 no CPT
Entry for CC(C)c1ccc(NC(=O)CSC2=Nc3ccccc3C3=NC(CCC(=O)NCc4cccs4)C(=O)N23)cc1 (stereo not given) : x, 21%, 23µM*, 0%, 26µM*
Entry for COc1cccc(-c2noc(C3CCCN(C(=O)CC(C)(C)C)C3)n2)c1 (stereo not given) : -14%, 3%, 16µM*, 0%, u
Entry for Oc1ccc(C[C@@H](CN2CCCC2CN2C(=S)NC[C@@H]2Cc2ccccc2)N2C[C@H](Cc3ccccc3)N(CC3CCCCC3)C2=S)cc1 (stereo not given in full) : x, x, 15µM*, x, 21µM*
Entry for Cc1ccc(Cl)cc1NC(=O)Cn1c(=O)cc(C)c2c(C)nn(C)c21 : x, -4%, 12µM*, 5%, u
